This note sets out measurements from ChEMBL document CHEMBL2417445, “Access to 7β-analogs of codeine with mixed μ/δ agonist activity via 6,7-α-epoxide opening” (Bioorg Med Chem Lett, 2013).

Sequences of proteins named here, by UniProt entry; tags and fusion partners are left off.
UniProt P41143, whole entry: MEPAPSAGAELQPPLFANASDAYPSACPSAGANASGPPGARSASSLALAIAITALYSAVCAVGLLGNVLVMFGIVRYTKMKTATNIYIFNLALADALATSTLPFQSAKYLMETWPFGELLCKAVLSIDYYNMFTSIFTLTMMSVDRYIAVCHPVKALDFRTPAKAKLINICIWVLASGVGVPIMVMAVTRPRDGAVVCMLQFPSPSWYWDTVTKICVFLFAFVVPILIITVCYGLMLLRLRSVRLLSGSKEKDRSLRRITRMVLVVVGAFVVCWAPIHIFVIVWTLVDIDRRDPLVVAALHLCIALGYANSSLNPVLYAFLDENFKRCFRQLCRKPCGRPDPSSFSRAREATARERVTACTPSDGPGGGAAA

For the assay, the target named is Delta-type opioid receptor (Homo sapiens, UniProt P41143). The assay can be described thus: Agonist activity at human DOR assessed as inhibition of forskolin-stimulated cAMP accumulation after 30 mins by cell based TR-FRET assay. It is filed as functional. A general note: Cyclic AMP is a second messenger, typically raised through Gs and lowered through Gi signalling.

Regarding `C[C@@H](NC(=O)[C@@H](N)Cc1ccc(O)cc1)C(=O)NCC(=O)N(C)[C@@H](Cc1ccccc1)C(=O)NCCO` [DAMGO], the EC50 (as a rule, the concentration needed to bring the measured effect to its halfway point) is 0.4 µM.
